Test results: patent US5807832A, “Oral delivery of biologically active substances bound to vitamin B12” (Biotech Australia Pty Limited, priority 1988, dated 1998)

Tested on: Mature C57B1/6J female mice
Experiment: Stimulation of ovulation in PMSG-primed mice (corpora haemorrhagica on the ovaries)
Type: in vivo
Conditions: Table 4; PMSG 8 IU day 0; 10 IU iv day 2
Experimental: Mature C57B1/6J female mice were treated in the following fashion: On day 0 all mice received a subcutaneous (s.'c) superovulating dose of pregnant mare serum gonadotraphin (PMSG) to stimulate the growth of ovarian follicles. After 48 hours mice received various doses of LHRH, Lys-6-LHRH or saline. On day 3 mice were sacrificed and examined for ovulation. Ovulation was assessed by examining for the presence of corpora haemorrhagica on the ovaries using a stereoscopic microscope at […].

HCG: hormone given iv as positive control for ovulation
Number of mice ovulating: 5/5
